In PubChem BioAssay AID1963597 (National Center for Advancing Translational Sciences (NCATS), 2024):

System: human liver microsomes, metabolic stability half-life
Assay: NCATS Human Liver Microsomal (HLM) Stability Profiling
Conditions: active compounds read high
From the text: Assay submitter (PI): Dr. Pranav Shah
NIH Center for Advancing Translational Sciences
Pharmacokinetic issues were the leading cause of drug attrition, accounting for approximately 40% of all cases before the turn of the century. To this end, several high-throughput in vitro assays like microsomal stability have been developed to evaluate the pharmacokinetic profiles of compounds in early stages of drug discovery. At NCATS, a single-point rat liver microsomal (RLM) stability assay is used as a Tier I assay, while human liver microsomal (HLM) stability is employed as a Tier II assay. While it is beneficial to have compound libraries screened for HLM stability, the increasing magnitude of hits routinely generated, and the time- and re-source-intensive nature of the assay makes it important to find alternatives. One strategy is to rely on in silico models that have been developed using data generated from these assays. Herein, we describe the development of an HLM stability prediction model using our in-house dataset of ~7,000 compounds, employing both traditional and advanced machine learning methods. […]
The substrate depletion method, also called the in vitro t1/2 method was used to analyze test compounds. […] Sample quantification and analysis was performed using a previously described method (Shah et al., 2016, Siramshetty et al., 2020). […]

`CCOP(=O)(CC)Oc1ccc([N+](=O)[O-])cc1` (stereo unspecified) gave a half-life of 2 h.
